Test results as given in ChEMBL document CHEMBL1938335, “2-(4-Methylsulfonylaminophenyl) propanamide TRPV1 antagonists: Structure-activity relationships in the B and C-regions” (Bioorg Med Chem, 2012).

The chains behind the UniProt entries cited, without tags or fusion partners.
UniProt O35433, whole entry: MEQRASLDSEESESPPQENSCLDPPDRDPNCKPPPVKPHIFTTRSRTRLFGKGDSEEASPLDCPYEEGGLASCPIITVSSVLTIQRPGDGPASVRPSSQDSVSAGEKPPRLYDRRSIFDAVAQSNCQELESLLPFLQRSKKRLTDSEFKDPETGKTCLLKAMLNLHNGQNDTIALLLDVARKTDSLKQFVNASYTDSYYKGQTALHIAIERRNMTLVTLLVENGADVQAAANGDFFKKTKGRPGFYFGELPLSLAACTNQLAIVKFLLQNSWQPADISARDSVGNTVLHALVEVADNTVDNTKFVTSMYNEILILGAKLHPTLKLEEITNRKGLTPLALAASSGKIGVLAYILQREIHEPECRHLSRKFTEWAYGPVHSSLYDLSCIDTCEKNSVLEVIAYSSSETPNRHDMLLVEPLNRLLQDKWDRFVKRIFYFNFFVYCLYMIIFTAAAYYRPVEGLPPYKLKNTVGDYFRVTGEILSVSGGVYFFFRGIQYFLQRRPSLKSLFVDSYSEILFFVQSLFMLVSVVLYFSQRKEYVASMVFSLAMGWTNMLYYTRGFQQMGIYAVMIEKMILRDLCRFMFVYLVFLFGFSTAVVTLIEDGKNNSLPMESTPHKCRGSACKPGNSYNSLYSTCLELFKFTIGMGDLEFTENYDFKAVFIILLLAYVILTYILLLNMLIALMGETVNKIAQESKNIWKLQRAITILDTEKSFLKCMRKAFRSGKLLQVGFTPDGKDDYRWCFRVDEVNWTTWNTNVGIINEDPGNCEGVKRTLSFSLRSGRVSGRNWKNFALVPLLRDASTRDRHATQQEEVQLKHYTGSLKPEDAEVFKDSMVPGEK

Columns and labels:
[1] = molecular target: T1, Transient receptor potential cation channel subfamily V member 1 (Rattus norvegicus, UniProt O35433); experiment: Displacement of [3H]RTX from rat TRPV1 expressed in CHO cells; type: cell-based
Outline: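 Competitive binding against [3H]RTX on rat TRPV1 heterologously expressed in CHO cells. Affinity reported as Ki (nM). Values are mean ± SEM from 3 or more experiments.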

[2] = molecular target: T1, Transient receptor potential cation channel subfamily V member 1; experiment: Antagonist activity at rat TRPV1 expressed in CHO cells by 45Ca2+ uptake assay

Ki [1]: 897 nM
Ki [2]: 384 nM
Structure (SMILES): CC(C(=O)NC/C=C/c1ccc(Cl)cc1)c1ccc(NS(C)(=O)=O)c(F)c1 (configuration not stated)
